Test [1] has as its target pY171-LAT peptide (singly phosphorylated on Y171). As to the kind of experiment: isothermal titration calorimetry, 1:1 binding model (Affinimeter), linked-parameter analysis of three repeats. A general note: In ITC the heat of successive injections is recorded.
The target is the same in test [2]. Briefly: ITC at 25 C, peptide injected into monomeric MBP-Gads SH2; KD = 1/KA, 1:1 model.

The term Kd denotes the free concentration of one partner at which half of the binding sites on the other are occupied at equilibrium, for simple one-to-one binding.

In test [1], “MBP-Gads SH2 F92D (from UniProt P0AEX9 27-392)” showed an H of -11.6 kcal/mol. Further, in test [2], the Kd came out at 470 nM.

(Values after US20220251182A1, “AGENTS WHICH INHIBIT GADS DIMERIZATION AND METHODS OF USE THEREOF” (Technion Research & Development Foundation Limited, priority 2017, published 2022).)
